About 480 (0.15%) of roughly 320,000 compounds were called active. Listed are the inconclusive results; actives and inactives stand elsewhere. Rule as the data show it: active = inhibition above about 26% (passing the limit was not always enough); inconclusive = no clear call, values can overlap the other calls.
biological target: Histone deacetylase 3 (Homo sapiens) (UniProt O15379); experiment: HDAC3 deacetylase inhibitors, primary screen, biochemical, fluorescence, cell-free homogeneous (AID 2718); conditions: recombinant HDAC3, fluorogenic peptide/trypsin coupled, at 8.3 µM, stronger effect = higher value

Protein sequences, listed by entry. Tags and fused reporters are not part of them. Lines headed by an entry give the natural chain unless they say otherwise; changes in a name come on top.
UniProt O15379: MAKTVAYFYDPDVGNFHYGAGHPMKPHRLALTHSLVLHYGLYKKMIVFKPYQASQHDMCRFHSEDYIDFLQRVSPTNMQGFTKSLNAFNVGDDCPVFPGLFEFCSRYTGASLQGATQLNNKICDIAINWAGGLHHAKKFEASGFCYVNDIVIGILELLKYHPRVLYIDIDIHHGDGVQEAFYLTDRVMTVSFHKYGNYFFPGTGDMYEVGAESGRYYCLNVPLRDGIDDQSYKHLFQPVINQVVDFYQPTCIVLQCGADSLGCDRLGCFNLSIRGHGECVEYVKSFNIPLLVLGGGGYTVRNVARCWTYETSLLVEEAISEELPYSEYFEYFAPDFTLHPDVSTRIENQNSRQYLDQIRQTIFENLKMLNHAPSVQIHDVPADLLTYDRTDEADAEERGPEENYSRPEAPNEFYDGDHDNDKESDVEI

| SMILES | inhibition |
| --- | --- |
| CC(=O)c1ccc(N2CC2c2ccncc2)cc1 (stereo not drawn) | inconclusive: 19.7% |
| Cc1ccc(NCCc2c([N+](=O)[O-])cc([N+](=O)[O-])cc2[N+](=O)[O-])cc1 | inconclusive: 26.4% |
| COc1cc(C(=O)NCC2(N3CCOCC3)CCCCC2)cc(Cl)c1OC(C)C | inconclusive: 15.4% |
